# Measured values reported in ChEMBL document CHEMBL1146766, “Synthesis of 3a,4-dihydro-3H-[1]benzopyrano[4,3-c]isoxazoles, displaying combined 5-HT uptake inhibiting and alpha2-adrenoceptor antagonistic activities. Part 2: Further exploration on the cinnamyl moiety” (Bioorg Med Chem Lett, 2004).
# Amino acid sequences for entries named in this document (tags omitted).
# UniProt P08913, whole entry: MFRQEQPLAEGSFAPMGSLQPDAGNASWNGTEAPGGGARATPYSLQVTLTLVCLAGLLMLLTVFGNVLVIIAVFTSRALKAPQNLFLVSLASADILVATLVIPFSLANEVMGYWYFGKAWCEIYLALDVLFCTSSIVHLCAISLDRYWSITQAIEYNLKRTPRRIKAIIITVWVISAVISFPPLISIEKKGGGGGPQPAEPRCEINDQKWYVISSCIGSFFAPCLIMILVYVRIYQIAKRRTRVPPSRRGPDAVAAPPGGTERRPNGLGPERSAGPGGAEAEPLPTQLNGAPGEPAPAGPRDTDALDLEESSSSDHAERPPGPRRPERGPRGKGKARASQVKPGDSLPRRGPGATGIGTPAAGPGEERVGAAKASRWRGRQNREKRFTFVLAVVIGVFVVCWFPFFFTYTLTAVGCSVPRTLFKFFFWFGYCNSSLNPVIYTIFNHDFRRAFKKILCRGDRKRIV
# Target: Alpha-2A adrenergic receptor (Homo sapiens, UniProt P08913)
# Experiment: In vitro binding affinity to the human alpha-2A adrenergic receptor
row,Ki,SMILES
1,0.8 nM,COc1cc2c(cc1OC)C1=NO[C@@H](CN3CCN(C/C(C)=C/c4ccccc4)CC3)[C@@H]1CO2
2,8.8 nM,COc1cc2c(cc1OC)C1=NO[C@@H](CN3CCN(C/C=C/c4ccccc4)CC3)[C@@H]1CO2
